Experimental data reported in patent US7647217B2, “Structure of the farnesoid X receptor ligand binding domain and methods of use therefor” (The Salk Institute for Biological Studies, priority 2002, dated 2010).

Chains of the proteins cited; added tags and fusions are not shown.
UniProt Q60641, whole entry: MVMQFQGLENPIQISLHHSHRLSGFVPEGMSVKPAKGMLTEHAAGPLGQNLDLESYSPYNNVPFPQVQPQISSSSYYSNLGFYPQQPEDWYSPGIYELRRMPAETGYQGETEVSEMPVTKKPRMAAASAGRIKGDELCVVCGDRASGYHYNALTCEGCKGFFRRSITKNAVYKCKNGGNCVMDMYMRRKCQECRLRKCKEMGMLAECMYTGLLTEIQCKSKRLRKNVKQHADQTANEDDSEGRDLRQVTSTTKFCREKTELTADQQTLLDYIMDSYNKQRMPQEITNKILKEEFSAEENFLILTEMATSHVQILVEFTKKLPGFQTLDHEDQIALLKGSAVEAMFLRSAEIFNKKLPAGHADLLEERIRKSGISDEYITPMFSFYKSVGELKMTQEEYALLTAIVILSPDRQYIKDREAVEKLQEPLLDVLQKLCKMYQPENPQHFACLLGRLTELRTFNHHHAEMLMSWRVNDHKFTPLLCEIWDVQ
UniProt P19793, whole entry partner: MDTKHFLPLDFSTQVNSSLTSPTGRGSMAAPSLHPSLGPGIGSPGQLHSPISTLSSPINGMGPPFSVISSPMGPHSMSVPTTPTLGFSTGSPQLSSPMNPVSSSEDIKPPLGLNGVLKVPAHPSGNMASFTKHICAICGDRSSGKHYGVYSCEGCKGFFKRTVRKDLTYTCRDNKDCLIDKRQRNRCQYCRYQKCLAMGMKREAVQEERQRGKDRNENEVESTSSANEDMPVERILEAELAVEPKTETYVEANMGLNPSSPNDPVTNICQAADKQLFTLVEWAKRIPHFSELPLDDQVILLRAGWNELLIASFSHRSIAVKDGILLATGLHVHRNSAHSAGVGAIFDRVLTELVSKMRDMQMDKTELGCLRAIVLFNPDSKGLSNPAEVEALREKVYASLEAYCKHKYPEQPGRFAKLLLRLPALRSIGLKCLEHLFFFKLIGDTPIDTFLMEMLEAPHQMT

Target: FXR (Mus musculus, UniProt Q60641)
Assay: Cell-based screen: full-length FXR expression vector co-transfected with hormone response element luciferase reporter
Settings: versus prototypical lead structure, after optimization of regions I and II

enhancement in the potency: more than 10 fold
Structure (SMILES): COC(=O)/C=C/c1cccc(N(Cc2ccc3c(c2OC)OC(C)(C)C=C3)C(=O)C2CCCCC2)c1
